We go through three molecules from patent US20260042834A1, “ANTI-CORTICOTROPIN-RELEASING HORMONE ANTIBODIES AND POLYCYSTIC OVARY SYNDROME” (HBM ALPHA THERAPEUTICS, INC., priority 2022, published 2026).

For one experiment, the target named is T1, biotinylated CRH (Homo sapiens, UniProt P06850).
T1 construct: purchased GL Biochem 784751
T1 sequence (P06850 154-194): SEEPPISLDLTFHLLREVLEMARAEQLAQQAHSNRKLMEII
Nature of the experiment: Affinity determination with Octet. In kind it is binding. As to the method: Octet® Red 96e was used for affinity measurement. Octet® running buffer was prepared by diluting kinetics buffer 10× (Fortebio, Cat #18-1105) in PBS according to the manufacturer's instructions. Two columns of SA sensors (Fortebio, Cat #18-5019) were hydrated in running buffer for 10 mins, one for ligand capturing and the other for reference. Antibodies were 2-fold diluted and added into a 96-well plate. 30 nM biotinylated CRH (GL Biochem, Cat #784751) was captured by the first column of SA sensors for 20 seconds, while reference sensors were dipped into buffer wells. After a 60-second baseline step, sensors were dipped into analyte and buffer wells successively, with the association and dissociation time of 180 seconds and 800 seconds, respectively. Sensors were regenerated in glycine pH1.5 (Cytiva, Cat #BR-1003-54) before the next cycle. […] Signals of reference wells and reference sensors were subtracted by selecting “Double reference” before data fitting.

A further experiment has as its system mouse CRHR2. The experiment is described as follows: CRH-induced luciferase reporter blocking assay, CHO-CRE-mCRHR2 cells. In kind it is cell-based. The note with it: CHO-CRE-mCRHR2 cells, 5 nM CRH. As to the method:
To create CHO-CRE-hCRHR1, -hCRHR2, -mCRHR1, and -mCRHR2 reporter cell lines, pcDNA3.1-hCRHR1, -hCRHR2, -mCRHR1, and -mCRHR2 were introduced into CHO-CRE cells established above by electroporation as described above. Selection antibiotics hygromycin at 500 μg/ml and G418 at 1,000 μg/ml were employed. Individual established stable cell lines were characterized by both CRH and forskolin stimulation. […]
(§1) Cells were digested by trypsin-EDTA (Life technologies, Cat #:12604-013), centrifuged at 1,000 rpm for 5 min, resuspended in growth medium, counted using a cell counter, seeded at a concentration of 5,000 cells per 100 μl in 96-well flat plates, and incubated overnight. 50 μl of 4× serially diluted antibodies was added (8 points, 1/4 diluted by growth medium) to plates containing CHO-CRE-hCRHR1 cells, and 50 μl of 4×CRH (4× is 2 nM, final is 0.5 nM) was added. Similarly, 4×CRH (4× is 0.4 nM, final is 0.1 nM) was added to CHO-CRE-hCRHR2 cells and CHO-CRE-mCRHR1 cells, and 4×CRH (4× is 20 nM, final is 5 nM) was added to CHO-CRE-mCRHR2 cells. Next, plates were incubated 4-6 hours at 37° C. in a CO2 incubator. 60 μl of culture medium was removed, to which was added 60 μl of Bio-Glo luciferase, followed by incubation for 10 min at RT. Plates were read in a luciferase plate reader (EnVision, PerkinElmer).

In a further experiment the test system is human CRHR2. The experiment is described as follows: CRH-induced luciferase reporter blocking assay, CHO-CRE-hCRHR2 cells. In kind it is cell-based. To be noted: CHO-CRE-hCRHR2 cells, 0.1 nM CRH. As to the method:
To create CHO-CRE-hCRHR1, -hCRHR2, -mCRHR1, and -mCRHR2 reporter cell lines, pcDNA3.1-hCRHR1, -hCRHR2, -mCRHR1, and -mCRHR2 were introduced into CHO-CRE cells established above by electroporation as described above. Selection antibiotics hygromycin at 500 μg/ml and G418 at 1,000 μg/ml were employed. Individual established stable cell lines were characterized by both CRH and forskolin stimulation.
Activated GPCR proteins increase production of the intracellular cAMP. CHO-CRE-human CRHR1 stable clone 11 was generated by introduction of pcDNA3.1-human CRHR1 under the selection of G418 and hygromycin. Human CRHR1 expression in CHO-CRE-hCRHR1 Clone 11 was confirmed by flow cytometry (data not shown). To further validate that the cell line was functional, CHO-CRE-hCRHR1 Clone 11 cells were treated with forskolin and CRH peptide. […] Subsequently CHO-CRE-hCRHR2 Clone 32, -mCRHR1 Clone 22, and -mCRHR2 Clone 8 cell lines were established using similar methodology and validated with CRH treatment (data not shown).
Blocking CRHR1 by small molecules or neutralization of CRH peptide can reduce luciferase expression if the CRH-CRHR1 system works in CHO-CRE-hCRHR1 cells. Antalarmin, a small molecule CRHR1 antagonist, blocked CRH-mediated luciferase expression in CHO-CRE-hCRHR1 Clone 11 (data not shown). Furthermore, sheep anti-CRH polyclonal antibody reduced CRH-mediated luciferase expression in these cells (data not shown). Likewise, sheep anti-CRH polyclonal antibody blocked CRH-mediated luciferase expression in CHO-CRE-hCRHR2, CHO-CRE-mCRHR1, and CHO-CRE-mCRHR2 cells (data not shown).
as §1

Changes are numbered by the printed parent chain.

B1: PR006153: ΔPTM variant of Series 1 mAb PR004290; HCDR2 54DS55, LCDR1 36SS37 (antibody)
heavy: EVQLVESGGVLVQPGGSLRLSCAASGFTFSSYWMTWVRQAPGKGLEWVANIKQDSSEKYYVDSVKGRFTISRDNAKNSLFLQMNSLRAEDTAVYYCARTLIFDYWGQGTLVTVSSASTKGPSVFPLAPSSKSTSGGTAALGCLVKDYFPEPVTVSWNSGALTSGVHTFPAVLQSSGLYSLSSVVTVPSSSLGTQTYICNVNHKPSNTKVDKKV[human IgG1 Fc not listed]
light: DIVMTQSPLSLPVTPGEPASISCRSSQSLLHSTGYSSLEWYLQKPGQSPQLLIYLGSNRASGVPDRFSGSGSGTDFTLKISRVEAEDVGIYYCMQTLQTPITFGQGTRLEIKRTVAAPSVFIFPPSDEQLKSGTASVVCLLNNFYPREAKVQWKVDNALQSGNSQESVTEQDSKDSTYSLSSTLTLSKADYEKHKVYACEVTHQGLSSPVTKSFNRGEC
On to B1, for which, in the experiment with biotinylated CRH, the “kdis” value was 8.36e-05 s⁻¹ and the “kon” value came out at 487000 M⁻¹ s⁻¹. The molecule also displayed an IC50 with mouse CRHR2 of 0.0192 µM. The concentration for half-maximal inhibition (IC50) in the experiment with human CRHR2 was determined as 0.0314 µM.

B2: PR005657: ΔPTM variant of Series 1 mAb PR004290; HCDR2 54DA55, LCDR1 36NS37 (antibody)
heavy: B1 heavy with S55A
light: B1 light with S36N
Turning to B2, the “kdis” value in the experiment with biotinylated CRH came to 4.67e-05 s⁻¹. Also, the IC50 with mouse CRHR2 stood at 0.00816 µM; in the experiment on human CRHR2, 0.0163 µM.

B3: PR301777: Series 5 anti-CRH mAb from immunized wildtype mice, human IgG1 wildtype Fc (antibody)
heavy: EMKLEESGGGLVQPGGSMKLSCVASGFTFSNYWMNWVRQSPEKGLEWVAEIRLKSNNYATHYAESVKGRFTISRDDSKSGVYLQMNNLGAEDTGIYYCTVGTLVYWGQGTLVTVSAASTKGPSVFPLAPSSKSTSGGTAALGCLVKDYFPEPVTVSWNSGALTSGVHTFPAVLQSSGLYSLSSVVTVPSSSLGTQTYICNVNHKPSNTKVDKKV[human IgG1 Fc not listed]
light: DIVLTQSPASLAVSLGQRATISCRASQSVSTSTYNYMHWFQQKPGQPPKLLIKFASNLESGVPARFSGSGSGTDFTLNIHPVEEEDTATFYCQHSWEIPYTFGGGTKLEIKRTVAAPSVFIFPPSDEQLKSGTASVVCLLNNFYPREAKVQWKVDNALQSGNSQESVTEQDSKDSTYSLSSTLTLSKADYEKHKVYACEVTHQGLSSPVTKSFNRGEC
As for B3, the “kdis” value with biotinylated CRH worked out at 3.48e-07 s⁻¹. The results for the half-inhibitory concentration (IC50) in the experiment with mouse CRHR2 and in the experiment with human CRHR2 were 0.00327 µM and 0.00143 µM, respectively.
